These results are taken from patent US10301318B2, “Neuroactive compounds and methods of using the same” (THE GENERAL HOSPITAL CORPORATION, priority 2014, dated 2019).

Chains of the proteins cited; added tags and fusions are not shown.
UniProt Q99720, whole entry: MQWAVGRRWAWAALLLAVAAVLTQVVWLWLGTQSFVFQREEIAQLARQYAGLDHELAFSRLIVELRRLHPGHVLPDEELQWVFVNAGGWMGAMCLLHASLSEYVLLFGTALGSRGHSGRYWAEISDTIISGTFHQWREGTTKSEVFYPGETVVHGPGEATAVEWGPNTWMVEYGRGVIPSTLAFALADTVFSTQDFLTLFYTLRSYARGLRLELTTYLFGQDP

For one assay, the target named is sigma-1 (Homo sapiens, UniProt Q99720). Briefly: in vitro radioligand competition binding, sigma-1. Also noted: species or system mammalian. As to conditions: for pKi: read-out: Ki for sigma-1, six best Ki values of 1170 binding assays. As to the method: (§1) FIG. 6. Target profiling. (a) Heat map depiction of in vitro mammalian target binding assay results across 45 candidate targets. Small molecules were computationally clustered by target profile similarity (vertical brackets) and targets were clustered by chemical binding profiles (horizontal brackets). […] (b) In vitro mammalian target binding receptor competition assays using cloned sigma-1 or -2, as indicated. Radioligand binding was measured after co-incubation with an unlabeled competitor, either haloperidol (positive control, black) or finazine (red). (c) Correlation plots of compound potency in the zebrafish strobe assay versus in vitro potency in simga-1 or -2 binding assays, as indicated. Each point represents a different compound in the finazine class.
(§2) To begin to determine the mechanism(s) of action of the newly discovered small molecules we screened them against a panel of 45 candidate neuronal targets in vitro (FIG. 6a). In each case we tested their ability to disrupt the interaction between a candidate neuronal protein and a known high-affinity radiolabeled ligand.
In general terms: In a radioligand displacement assay an active substance lowers the binding of a labelled ligand.

The test system of assay [1] is mice. Put plainly: contextual fear conditioning test. The settings on record: 24 h after footshocks; vehicle about 60%. How it is done:
FIG. 7. Finazine has neuroactive effects in a mouse freezing assay. Contextual Fear Conditioning Test using male C57BL/6J mice treated with 10% DMSO vehicle or finazine, as indicated. Locomotion was measured during the exposure to the conditioned context 24 h post shock treatment. Data were analyzed by one-way analysis of variance (ANOVA) and the Fisher's PLSD post hoc test. (*p=0.0328).
To determine whether or not compounds discovered in the zebrafish assay retain activity in mammals, we turned to a well-established assay of behavioral freezing in mice, contextual fear conditioning. […] Mice were treated with either 10% DMSO vehicle or finazine (compound (1)), and evaluated for their freezing response to the conditioning chamber twenty-four hours after receiving a series of mild (0.5 mA) footshocks. […]
Male C57BL/6J mice (9-10 weeks at testing) were obtained from Jackson Laboratories (Bar Harbor, Me.). […] Locomotor activity was measured in Plexiglas square chambers (27.3×27.3×20.3 cm; Med Associates Inc., St Albans, Vt.) surrounded by infrared photobeam sources and detectors. […] Mice were injected with 10% DMSO vehicle or finazine (6.25, 12.5, or 25 mg/kg in 10% DMSO) and locomotor activity was monitored for 30 m (baseline total distance). Mice were then administered saline vehicle or PCP (5 mg/kg) and activity was measured for an additional 60 m. […]

The subject of assay [2] is mice. Briefly: psychostimulant (PCP)-induced locomotor assay. As to conditions: for baseline locomotor activity: IP, before PCP. The text has this:
To determine if finazine (compound (1)) has antipsychotic-like activity, we tested this compound in a psychostimulant-induced schizophrenia model. In humans, acute administration of psychostimulants such as phencyclidine (PCP), a NMDA receptor antagonist, induces psychosis-like symptoms in common with schizophrenia [Jentsch, J. D. & Roth, R. H. The Neuropsychopharmacology of Phencyclidine: From NMDA Receptor Hypofunction to the Dopamine Hypothesis of Schizophrenia. Neuropsychopharmacology 20, 201-225 (1999)]. In mice, PCP induces a hyperlocomotion phenotype that can be reversed by haloperidol and other typical and atypical antipsychotic drugs [Gleason, S. D. & Shannon, H. E. Blockade of phencyclidine-induced hyperlocomotion by olanzapine, clozapine and serotonin receptor subtype selective antagonists in mice. Psychopharmacology (Berl.) 129, 79-84 (1997); Freed, W. J., Bing, L. A. & Wyatt, R. J. Effects of neuroleptics on phencyclidine (PCP)-induced locomotor stimulation in mice. Neuropharmacology 23, 175-181 (1984)]. To determine if finazine might have antipsychotic-like activity in mammals we injected three groups of mice each with graded doses (25, 12.5 and 6.25 mg/kg). […]
Male C57BL/6J mice (9-10 weeks at testing) were obtained from Jackson Laboratories (Bar Harbor, Me.). […] Locomotor activity was measured in Plexiglas square chambers (27.3×27.3×20.3 cm; Med Associates Inc., St Albans, Vt.) surrounded by infrared photobeam sources and detectors. […] Mice were injected with 10% DMSO vehicle or finazine (6.25, 12.5, or 25 mg/kg in 10% DMSO) and locomotor activity was monitored for 30 m (baseline total distance). Mice were then administered saline vehicle or PCP (5 mg/kg) and activity was measured for an additional 60 m. […] Locomotor activity was measured as total distance traveled (cm), assessed via infrared beam breaks. Locomotion prior to PCP administration (baseline, 0-30 m) and locomotion post PCP administration (PCP, 30-60 m) were analyzed by one-way analysis of variance (ANOVA) with finazine (0, 6.25, 12.5, 25) as the independent variable. […]

For the next assay, the system named is sigma-2. Put plainly: in vitro radioligand competition binding, sigma-2. Also noted: species or system mammalian. As to conditions: similar to haloperidol. How it is done: as §1, §2

Each structure is given as a SMILES string. pKi: −log10 of the molar value.

As usually defined, the pKi is the negative decadic logarithm of the Ki, by convention in mol/L.

Regarding `Cc1cc(NC(=O)CCN2CCCCC2)ccc1Br`, the pKi at sigma-1 was 9.10.

In the case of `Cc1cccc(NC(=O)CCN2CCN(C/C=C/c3ccccc3)CC2)c1`, the “time immobile (freezing) in conditioned context” value in the assay with mice [1] is listed as “less than 40%”. For the same molecule, in the assay with mice [2] (PCP 5 mg/kg 30 min after compound), the “effect on PCP-induced hyperactivity” value was “reduced the psychostimulant effect of PCP”. The baseline locomotor activity entry in the assay on mice [2] (lowest dose 6.25 mg/kg) is “unaffected”; in the assay with mice [2] (two higher doses (25 and 12.5 mg/kg)), “decrease in baseline locomotor activity”. The “Ki values for sigma-2 (in words)” value in the assay on sigma-2 is given as “low nM”. The “Ki values for sigma-1 (in words)” value at sigma-1 (similar to haloperidol) is “low nM”.

For the molecule `Cc1cc(C)cc(NC(=O)CCN2CCCCCC2)c1`, the pKi on sigma-1 is 8.85.

As to `Cc1ccc(NC(=O)CCN2CCCCCC2)cc1C`, the pKi at sigma-1 was 8.77.
